Source: PubChem BioAssay (National Center for Advancing Translational Sciences (NCATS))
Rows were chosen to be rich in hits. Some 3.7% of all compounds tested hit in one or more screens of this group.
ClpP mod = qHTS Assay for Activators of ClpP; Potency, µM (series often up to 57.5 µM), for the others: at the highest dose activity change, negative = active; purified B. subtilis ClpP, FRET peptide cleavage, 20 min; hit rate 1.9% among 340,000; active = well fitted falling curve with a large enough effect; inconclusive = small, poorly fitted or top-dose-only effect; inactive = no such curve, though single readings can be large or run the other way; also: potency is read from the fitted curve at half-maximal effect; the source files actives as falling curves though it sought activators and does not explain the sign; nearly all actives have a fitted effect of over 65% in size
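ClpP 10 microg/mL final, pH 8 Tris/KCl buffer with BSA, glycerol, Tween-20; compound pinned in; FRET-FV substrate; RT 20 min; Ex320/Em430; ΔFRET vs ADEP 5.8 microM, DMSO, no enzyme.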
miR-21 reporter = raises the signal of a miR-21 reporter; AID 2288; 340,000 tested, under 10 active; Potency, µM (doses to about 38.3 µM), inactives show at the top dose reporter change, positive = more light; HeLa miR-21 FLuc reporter, luciferase, 48 h; active = well fitted rising curve with a large enough effect; inconclusive = small, poorly fitted or top-dose-only effect; inactive = no such curve, though single readings can be large or run the other way;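 note: % of control where 0% means no effect; miR-21 action dims this reporter so a rising signal means less miR-21 action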
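Luminescence from a firefly luciferase reporter carrying a miR-21 binding site downstream, stably expressed under a CMV promoter in HeLa cells that make miR-21 endogenously, reports miRNA modulation after 48 h compound exposure up to approximately 40uM final.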
p53 reactivation = mutant p53 re-activation in reporter cells | hit rate 0.063% among 320,000 | AID 504706 | Potency, µM (top dose mostly 92.2 µM), for the others: at the top dose activity change, positive = activation, most hits filed as activators | H1299 p53-A138V BP100-luciferase reporter, luminescence, 24 h; also: potency is read from the fitted curve at half-maximal effect; % of control where 0% means no effect; nearly all actives have a fitted effect of over 45% in size
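H1299 (p53-null), stable ts p53-A138V + BP100-Luc; 1000 cells/well, Opti-MEM/10% FBS; cpd 4 pt, 1:5; 24 h, 37 deg C, 5% CO2; detection reagent 10 min RT; luminescence.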
Nrf2 activator = activators of Nrf2 (ARE) signaling; AREc32 ARE-luciferase reporter (MCF7-derived line), luminescence, 24 h; Potency, µM (top dose mostly 46.1 µM), without a hit: at the top dose activation, most hits filed as activators; hit rate 0.31% among 410,000; AID 624171; also: potency is read from the fitted curve at half-maximal effect; % of control where 0% means no effect; nearly all actives have a fitted effect of over 65% in size
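Cells of the AREc32 ARE-luciferase line are plated in OPTI-MEM containing 5% FBS and left overnight at 37 deg C. Compounds are pinned in, incubation continues 24 hr, and firefly luciferase signal is then measured.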
Nrf2 inh = inhibitors of Nrf2 signaling; A549 ARE-Fluc reporter, luciferase luminescence, 18-24 h; Potency, µM (titrated, usually from 46 µM), without a hit: at the highest dose activity change, negative = inhibition, usual class: inhibitors; hit rate 2.1% among 360,000; AID 504444; also: potency is read from the fitted curve at half-maximal effect; % is scaled to controls: 0 for no effect and ±100 for the full control effect; nearly all actives have a fitted effect of over 60% in size
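A549 ARE_Fluc cells, 5000/well, 5% FBS OPTI-MEM; compounds in dose-response, 18-24 h at 37 °C/5% CO2; CellTiter-Fluor viability read (Ex 405/Em 525), then BugLite luciferase luminescence = Nrf2 activity.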
A549 tox = counter-screen for Nrf2 inhibitors: cytotoxicity in A549 cells. hit rate 0.16% among 390,000. AID 504648. Potency, µM (titrated, usually from 46 µM), inactives show at the highest dose activity change, negative = cytotoxicity, hits mostly inhibitors. A549 ARE-Fluc cells, CellTiter-Fluor viability, 18-24 h; also: potency is read from the fitted curve at half-maximal effect; % is scaled to controls: 0 for no effect and ±100 for the full control effect
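A549 ARE-Fluc cells in 5% FBS OPTI-MEM, 5000 cells/well, rested 2 h then exposed to compounds in concentration-response for 18-24 h at 37 °C. Viability by CellTiter-Fluor fluorescence (Ex 405/Em 525) after 30 min; luciferase luminescence (BugLite, 15 min, RT) read afterwards.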
The depositor's hits bear a star; ? = inconclusive; nt = no result; [ ] = remark or other dose. Unless noted, calls follow the shape of the dose curve; as a rule, active = well fitted curve in the direction sought with a large enough effect; inconclusive = small, poorly fitted or top-dose-only effect, or another doubt; inactive = no such curve, though single readings can be large; an effect the other way counts as inactive or inconclusive.

Short keys: A = ClpP mod; B = miR-21 reporter; C = p53 reactivation; D = Nrf2 activator; E = Nrf2 inh; F = A549 tox
> CCOC(=O)N1CCC(N(C(=O)Nc2ccc(Cl)c(Cl)c2)C(C)CC)CC1 (stereo not given)
  A = -2% | B = 5% | C = 3% | D = 4% | E = 15µM* | F = ?

> CCOC(=O)c1ccccc1NC(=O)N(C(C)C)C1CCN(C(C)=O)CC1
  A = 28µM* | B = -1% | C = nt | D = 3% | E = 6% | F = -1%

> CCOC(=O)N1CCN(C(=O)Nc2ccc3nc(C)c(C)nc3c2)CC1
  A = 28µM* | B = 2% | C = -6% | D = 0% | E = -5% | F = -1%

> Cc1nc2ccc(NC(=S)N3CCCC3)cc2nc1C
  A = -6% | B = -17% | C = 1% | D = 0% | E = 10% | F = 3%

> Cc1cc2oc(C(=O)N(Cc3ccc(N(C)C)cc3)Cc3ccco3)c(C)c2cc1Cl
  A = -16% | B = -8% | C = nt | D = 4% | E = -8% | F = 19%

> COc1cc(NC(=O)c2nn(-c3ccc(F)cc3)c(=O)n(C)c2=O)cc(OC)c1OC
  A = 0% | B = 2% | C = nt | D = 0% | E = nt | F = 2%

> COc1ccc(-c2nnc(SCC(=O)Nc3cccc(C(F)(F)F)c3)nc2-c2ccc(OC)cc2)cc1
  A = -2% | B = 9% | C = nt | D = 2% | E = nt | F = -2%

> COc1ccc2[nH]cc(CCNC(=O)/C=C/[C@H]3O[C@@H](n4cnc5c(NC(=O)c6ccccc6)ncnc54)[C@H](O)[C@@H]3O)c2c1
  A = -1% | B = nt | C = nt | D = -1% | E = nt | F = nt

> Cc1ccc(NC(=O)c2cc(S(=O)(=O)N3CCCCC3)ccc2N2CCOCC2)cc1
  A = 1% | B = nt | C = nt | D = -1% | E = nt | F = nt

> Cc1ccc(CNC(=O)c2cc(S(=O)(=O)N3CCCCC3)ccc2N2CCOCC2)cc1
  A = -1% | B = nt | C = -5% | D = -1% | E = 21µM* | F = ?

> COCCNC(=O)c1c[nH]c2ccc(S(=O)(=O)N3CCOCC3)cc2c1=O
  A = 4% | B = 0% | C = 5% | D = -1% | E = 4% | F = 3%

> O=C(NCc1ccc2c(c1)OCO2)c1c[nH]c2ccc(S(=O)(=O)N3CCOCC3)cc2c1=O
  A = ? | B = -2% | C = 7% | D = 0% | E = nt | F = 0%

> CN(Cc1ccccc1)C(=O)c1c[nH]c2ccc(S(=O)(=O)N3CCOCC3)cc2c1=O
  A = 32µM* | B = -10% | C = -1% | D = 0% | E = 2% | F = 2%

> Cc1ccc(C)c(N(C)S(=O)(=O)c2ccc3[nH]cc(C(=O)NCCN4CCOCC4)c(=O)c3c2)c1
  A = 18µM* | B = 3% | C = 12% | D = 5% | E = 17% | F = 10%

> Cc1ccc(CNC(=O)c2c[nH]c3ccc(S(=O)(=O)N4CCOCC4)cc3c2=O)cc1
  A = 28µM* | B = -4% | C = nt | D = 0% | E = nt | F = 17%

> COc1ccc(OC)c(C2CC(=O)Oc3c2c(=O)n(C)c2ccccc32)c1 (stereo not given)
  A = 5% | B = -8% | C = nt | D = 0% | E = -20% | F = 0%

> O=C(OCCOc1cccc(Cl)c1)c1cc(S(=O)(=O)N2CCCCC2)ccc1N1CCOCC1
  A = ? | B = nt | C = 1% | D = 3% | E = 12µM* | F = -17%

> O=C(OCc1cccc(Cl)c1)c1cc(S(=O)(=O)N2CCCCC2)ccc1N1CCOCC1
  A = -22% | B = -1% | C = -6% | D = -1% | E = ? | F = -9%

> COc1ccccc1NC(=O)C1CCN(S(=O)(=O)c2ccc3c(c2)CC(C)N3C(C)=O)CC1 (stereo not given)
  A = 0% | B = 0% | C = 4% | D = -1% | E = ? | F = 9%

> COc1ccccc1NC(=O)C1CCC(CNS(=O)(=O)c2ccc3c(c2)CC(C)N3C(C)=O)CC1 (stereo not given)
  A = 1% | B = ? | C = nt | D = 0% | E = 18µM* | F = -3%

> CC(=O)N1c2ccc(S(=O)(=O)NCC3CCC(C(=O)Nc4ccc(C)c(C)c4)CC3)cc2CC1C (stereo not given)
  A = 3% | B = 14% | C = nt | D = 5% | E = 21µM* | F = -12%

> CC(=O)N1c2ccc(S(=O)(=O)NCC3CCC(C(=O)Nc4ccc(F)cc4)CC3)cc2CC1C (stereo not given)
  A = -6% | B = 29% | C = nt | D = 3% | E = nt | F = -10%

> COc1ccc(-c2nc3cc(NC(=O)Cc4ccc(OC)c(OC)c4)ccc3o2)cc1
  A = 14µM* | B = 1% | C = 5% | D = 1% | E = 15µM* | F = ?

> COc1ccc(-c2nc3cc(NC(=O)Cc4ccc(Cl)cc4)ccc3o2)cc1OC
  A = 5% | B = 11% | C = nt | D = 0% | E = 23µM* | F = ?

> COc1ccc(-c2nc3cc(NC(=O)COc4ccc(F)cc4)ccc3o2)cc1
  A = 4% | B = -21% | C = nt | D = 0% | E = ? | F = -17%

Some of these compounds in order of SMILES length, lowest first:
Short keys: A = ClpP mod; B = miR-21 reporter; C = p53 reactivation; D = Nrf2 activator; E = Nrf2 inh; F = A549 tox
> CCOC(=O)N1CCN(C(=O)Nc2ccc3nc(C)c(C)nc3c2)CC1
  A = 28µM* | B = 2% | C = -6% | D = 0% | E = -5% | F = -1%

> COc1ccc(-c2nc3cc(NC(=O)COc4ccc(F)cc4)ccc3o2)cc1
  A = 4% | B = -21% | C = nt | D = 0% | E = ? | F = -17%

> COc1ccc(-c2nc3cc(NC(=O)Cc4ccc(Cl)cc4)ccc3o2)cc1OC
  A = 5% | B = 11% | C = nt | D = 0% | E = 23µM* | F = ?

> COc1cc(NC(=O)c2nn(-c3ccc(F)cc3)c(=O)n(C)c2=O)cc(OC)c1OC
  A = 0% | B = 2% | C = nt | D = 0% | E = nt | F = 2%

Later entries:
Short keys: A = ClpP mod; B = miR-21 reporter; C = p53 reactivation; D = Nrf2 activator; E = Nrf2 inh; F = A549 tox
> O=C(COc1ccc(Cl)cc1)Nc1ccc2oc(-c3ccncc3)nc2c1
  A = 15% | B = -9% | C = 2% | D = 0% | E = 4% | F = 6%

> CC(C)(Oc1ccc(Cl)cc1)C(=O)Nc1ccc2oc(-c3ccncc3)nc2c1
  A = 28µM* | B = -5% | C = -6% | D = -1% | E = nt | F = 4%

> O=C(Cc1ccc(Cl)cc1)Nc1ccc2oc(-c3ccc(F)cc3)nc2c1
  A = ? | B = -18% | C = nt | D = 0% | E = ? | F = 0%

> O=C(NCCCn1ccnc1)Nc1cccc2ccccc12
  A = 32µM* | B = 0% | C = -6% | D = -1% | E = nt | F = 4%

> Cc1cc(NC(=O)COC(=O)c2nccnc2N)n(-c2ccccc2)n1
  A = nt | B = nt | C = -7% | D = 0% | E = 1% | F = -1%

> CC(C)(C)c1cc(NC(=O)COC(=O)c2nccnc2N)n(-c2ccccc2)n1
  A = 22µM* | B = -3% | C = -2% | D = 0% | E = 15% | F = -7%

> O=C(c1ccc(CS(=O)c2ccccc2Cl)o1)N1CCN(c2ccccc2F)CC1 (stereo not given)
  A = 0% | B = 22% | C = nt | D = 0% | E = -4% | F = -6%

> CCOc1cc(S(=O)(=O)NC2CC2)c(OCC)cc1-n1cnnn1
  A = 32µM* | B = -10% | C = 4% | D = 0% | E = 20% | F = -2%

> Cc1cc(S(=O)(=O)NC2CCCCC2)ccc1-n1cnnn1
  A = nt | B = -1% | C = -2% | D = -1% | E = 12µM* | F = -6%

> COc1ccc(S(=O)(=O)NC2CCCCC2)cc1-n1cnnn1
  A = nt | B = -10% | C = -4% | D = 0% | E = 0% | F = -6%

> CCOc1cc(S(=O)(=O)NCc2ccc(OC)cc2)c(OCC)cc1-n1cnnn1
  A = 22µM* | B = 19% | C = 4% | D = 0% | E = -10% | F = 0%[1.84 µM]

> CCOc1cc(S(=O)(=O)NCC2OCCc3ccccc32)c(OCC)cc1-n1cnnn1 (stereo not given)
  A = 13µM* | B = -20% | C = -2% | D = 0% | E = -20% | F = -8%

> CCCCn1c(N)c(N(CC(C)C)C(=O)C2=NN(c3cc(C)ccc3C)C(=O)CC2)c(=O)[nH]c1=O
  A = -8% | B = nt | C = -1% | D = 0% | E = -16% | F = 5%

> CCOc1ccc(CNC(=O)CN2C(=O)CCn3nc(-c4cn(C)c5ccccc45)cc32)cc1OC
  A = -6% | B = -7% | C = nt | D = -1% | E = nt | F = ?

> CC(C)n1c(=O)c2ccccc2n1Cc1cn(Cc2cccnc2)nn1
  A = 5% | B = nt | C = nt | D = 0% | E = nt | F = nt

> Cc1ccc(S(=O)(=O)c2nnn3c2nc(N2CCCC(C)C2)c2cc(Cl)ccc23)cc1C (stereo not given)
  A = -7% | B = 0% | C = nt | D = 0% | E = 13% | F = 1%

> CN(C)c1ccc(C2=Cc3ccccc3C2)cc1
  A = -1% | B = nt | C = nt | D = nt | E = nt | F = nt
